The numbers were not newly measured in patent US8834942B2, “Enhanced absorption of oregano derived oils” (priority 2010, dated 2014), which cites them from elsewhere.

For this data set the following is noted: single emulsifier.

For “tocopheryl polyethylene glycol succinate”, the HLB value result was “about 13”.
